Assay results as given in article PMC6988309, “Preclinical efficacy for a novel tyrosine kinase inhibitor, ArQule 531 against acute myeloid leukemia” (Journal of Hematology & Oncology, 2020).

System: BTK phosphorylation
Experiment: Immunoblot of phospho-BTK
Type: cell-based, human
Conditions: AML cell lines; MOLM-13 1 µM for 1 hour (Figure S2)
Protocol: Cells were washed in ice-cold PBS then lysed in 1X Cell Lysis Buffer (CST) supplemented with proteinase and phosphatase inhibitors cocktail (Roche). Pierce BCA Protein Assay was used to quantify the protein lysates (Thermo Fisher Scientific, Waltham, MA). For Immunoblotting, 15–25 μg of protein lysate was prepared in 2X or 4X Laemmeli’s sample buffer (Bio-Rad Laboratories, Hercules, CA) and heated for 5 min at 100 °C. Samples were separated on 8% sodium dodecyl sulfate polyacrylamide gel and transferred onto nitrocellulose membrane (Bio-Rad Laboratories, Hercules, CA). The membranes were blocked for 1 h in Blocker BLOTTO Blocking Buffer (Thermo Fisher Scientific, Waltham, MA) or 5% non-fat milk followed by overnight incubation at 4 °C with primary antibody followed by HRP-conjugated secondary antibodies and visualized with chemiluminescent Pierce ECL Substrate (Thermo Fisher Scientific, Waltham, MA) on X-ray films.
Immunoblot analysis for MOLM-13, MV4-11, and OCI-AML3 AML cell lines (representative of 2-3 independent blots). […] Twenty to 25 μg of total protein lysate was loaded per lane.

SMILES: c1cn2cc(-c3ccc4cn[nH]c4c3)nc(Nc3ccc(N4CCOCC4)cc3)c2n1 [entospletinib, Entospletinib, reference compound]
- effect on BTK phosphorylation: no effect on BTK phosphorylation
